Earlier results in patent US20250387506A1, “Carborane-Based Boron-Enriched PEG Linkers for mAb Ligation Synthesis and Methods” (TAE Life Sciences LLC, priority 2024, published 2025).

Legend:
[1] = system: F98 glioma (wt and EGFRvIII tumors); conditions: 24 hr, intra-brain injection, brain orthotopic F98 glioma
[2] = system: EGFR-expressing F98 rat glioma cells; conditions: radio-iodinated conjugate

For cetuximab targeted borylated dendrimer, the “Boron concentration in surrounding normal right and left brain” value [1] is listed as 15±5 μg/g tissue, the “Boron concentration in tumor” value ([1]; EGFRvIII tumor for the conjugate) is listed as “over 90 μg/g tissue” and the “Dose-response on incubation with cells (immunoreactivity)” value [2] is listed as “saturable dose-response”.
